This note sets out measurements from US10689377B2 (dated 2020).

Test [1] addresses KRas G12C (Homo sapiens, UniProt P01116, G12C). Description: Cellular inhibition of KRas G12C measured by Phospho-ERK in NCI-H358 cells. It is filed as cell-based. To be noted: IC50, pERK(Thr202/Tyr204) normalized with GAPDH, 3 hours.
For test [2], the target named is KRas G12C (Homo sapiens, UniProt P01116, C118S/C51S/C80L/G12C). Description: KRas G12C Modification Assay (LCMS detection of covalent adduct). It is filed as binding. To be noted: normalized percent of control; 5 μM concentration for 3 hours.

The molecule `C=CC(=O)N1CCN(c2nc(OC[C@@H]3CCCN3C)nc3c2CCN(c2cc(O)cc4ccccc24)C3)CC1` [Example 127, (S)-1-(4-(7-(3-hydroxynaphthalen-1-yl)-2-((1-methylpyrrolidin-2-yl)methoxy)-5,6,7,8-tetrahydropyrido[3,4-d]pyrimidin-4-yl)piperazin-1-yl)prop-2-en-1-one] came in with a half-inhibitory concentration (IC50) in test [1] of 0.1 to 1000 nM. In test [2], the POC result is listed as “C (“C”>50% POC)”.
Consider `C=CC(=O)N1CCN(c2nc(OC[C@H]3CCCN3C)nc3c2CCN(c2cc(O)cc4ccccc24)C3)CC1` [Example 187, (R)-1-(4-(7-(3-hydroxynaphthalen-1-yl)-2-((1-methylpyrrolidin-2-yl)methoxy)-5,6,7,8-tetrahydropyrido[3,4-d]pyrimidin-4-yl)piperazin-1-yl)prop-2-en-1-one], for which the IC50 in test [1] fell in the range of 0.1 to 1000 nM. Moreover, in test [2], the POC entry is “C (“C”>50% POC)”.
On to `C=CC(=O)N1CCN(c2nc(OC[C@@H]3CCCN3C)nc3c2CCN(c2cccc4ccccc24)C3)CC1` [Example 200, (S)-1-(4-(2-((1-methylpyrrolidin-2-yl)methoxy)-7-(naphthalen-1-yl)-5,6,7,8-tetrahydropyrido[3,4-d]pyrimidin-4-yl)piperazin-1-yl)prop-2-en-1-one], for which the POC entry in test [2] is recorded as “C (“C”>50% POC)”.
